Experimental data: patent US10947242B2, “[1,2,4]triazolo[1,5and#8208;A]pyrimidine compounds as PDE2 inhibitors” (Janssen Pharmaceutica NV, priority 2016, dated 2021)
Like-named read-outs stand apart in the source and are kept apart here.

By UniProt entry, the sequences of proteins in these tests, tags left out. Residues count along the entry.
UniProt O00408, whole entry: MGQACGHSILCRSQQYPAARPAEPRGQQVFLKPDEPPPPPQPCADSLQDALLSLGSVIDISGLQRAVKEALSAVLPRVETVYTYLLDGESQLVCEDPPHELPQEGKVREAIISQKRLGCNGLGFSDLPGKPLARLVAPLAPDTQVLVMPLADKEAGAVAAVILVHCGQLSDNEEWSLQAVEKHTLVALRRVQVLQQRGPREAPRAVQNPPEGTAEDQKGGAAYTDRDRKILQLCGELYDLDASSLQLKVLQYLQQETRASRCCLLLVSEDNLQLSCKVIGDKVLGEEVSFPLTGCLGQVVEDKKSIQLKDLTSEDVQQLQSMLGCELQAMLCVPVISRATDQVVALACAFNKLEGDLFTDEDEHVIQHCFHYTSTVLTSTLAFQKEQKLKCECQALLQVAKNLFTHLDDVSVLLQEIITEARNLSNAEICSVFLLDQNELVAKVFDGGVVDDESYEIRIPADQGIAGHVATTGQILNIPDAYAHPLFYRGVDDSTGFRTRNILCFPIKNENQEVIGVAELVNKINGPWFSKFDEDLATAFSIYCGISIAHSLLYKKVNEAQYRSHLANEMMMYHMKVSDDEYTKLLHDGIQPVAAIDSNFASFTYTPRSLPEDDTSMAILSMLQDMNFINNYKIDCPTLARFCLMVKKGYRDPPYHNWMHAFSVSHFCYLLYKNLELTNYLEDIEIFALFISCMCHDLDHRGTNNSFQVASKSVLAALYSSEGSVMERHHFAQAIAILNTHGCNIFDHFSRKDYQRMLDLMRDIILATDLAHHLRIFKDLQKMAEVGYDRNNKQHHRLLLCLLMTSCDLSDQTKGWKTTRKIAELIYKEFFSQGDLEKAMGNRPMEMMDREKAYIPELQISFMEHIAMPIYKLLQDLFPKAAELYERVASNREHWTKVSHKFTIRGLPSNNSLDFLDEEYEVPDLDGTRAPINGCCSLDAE
UniProt Q14432, whole entry: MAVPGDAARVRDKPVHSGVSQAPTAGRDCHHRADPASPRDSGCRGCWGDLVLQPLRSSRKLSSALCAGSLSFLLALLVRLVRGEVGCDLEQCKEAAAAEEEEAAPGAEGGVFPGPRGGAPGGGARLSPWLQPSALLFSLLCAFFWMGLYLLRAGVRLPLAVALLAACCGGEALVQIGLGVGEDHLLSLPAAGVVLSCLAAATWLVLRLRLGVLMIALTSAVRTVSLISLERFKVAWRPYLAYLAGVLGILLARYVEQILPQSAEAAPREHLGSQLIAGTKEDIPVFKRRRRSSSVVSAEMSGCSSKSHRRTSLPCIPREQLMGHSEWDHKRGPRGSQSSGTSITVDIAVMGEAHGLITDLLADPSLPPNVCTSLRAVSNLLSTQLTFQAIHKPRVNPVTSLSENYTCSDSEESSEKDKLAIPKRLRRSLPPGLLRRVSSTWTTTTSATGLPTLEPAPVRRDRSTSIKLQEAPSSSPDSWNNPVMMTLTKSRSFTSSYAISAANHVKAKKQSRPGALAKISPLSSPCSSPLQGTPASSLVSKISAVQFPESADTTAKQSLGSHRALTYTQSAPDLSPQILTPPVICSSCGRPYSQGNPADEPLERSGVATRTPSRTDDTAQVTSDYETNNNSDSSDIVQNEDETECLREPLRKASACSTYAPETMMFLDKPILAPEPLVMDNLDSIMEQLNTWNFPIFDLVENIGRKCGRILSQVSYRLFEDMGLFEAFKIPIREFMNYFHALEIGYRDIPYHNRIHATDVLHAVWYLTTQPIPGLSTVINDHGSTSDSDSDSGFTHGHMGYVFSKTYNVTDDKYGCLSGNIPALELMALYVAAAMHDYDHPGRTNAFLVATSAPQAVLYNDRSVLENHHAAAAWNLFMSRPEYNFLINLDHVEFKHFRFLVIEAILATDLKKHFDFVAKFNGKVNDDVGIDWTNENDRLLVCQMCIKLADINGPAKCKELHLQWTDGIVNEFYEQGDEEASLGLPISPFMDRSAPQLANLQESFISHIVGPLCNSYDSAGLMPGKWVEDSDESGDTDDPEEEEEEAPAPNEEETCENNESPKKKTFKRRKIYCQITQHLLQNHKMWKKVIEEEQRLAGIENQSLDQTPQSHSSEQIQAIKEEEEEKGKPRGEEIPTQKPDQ
UniProt Q9Y233, 267-1055: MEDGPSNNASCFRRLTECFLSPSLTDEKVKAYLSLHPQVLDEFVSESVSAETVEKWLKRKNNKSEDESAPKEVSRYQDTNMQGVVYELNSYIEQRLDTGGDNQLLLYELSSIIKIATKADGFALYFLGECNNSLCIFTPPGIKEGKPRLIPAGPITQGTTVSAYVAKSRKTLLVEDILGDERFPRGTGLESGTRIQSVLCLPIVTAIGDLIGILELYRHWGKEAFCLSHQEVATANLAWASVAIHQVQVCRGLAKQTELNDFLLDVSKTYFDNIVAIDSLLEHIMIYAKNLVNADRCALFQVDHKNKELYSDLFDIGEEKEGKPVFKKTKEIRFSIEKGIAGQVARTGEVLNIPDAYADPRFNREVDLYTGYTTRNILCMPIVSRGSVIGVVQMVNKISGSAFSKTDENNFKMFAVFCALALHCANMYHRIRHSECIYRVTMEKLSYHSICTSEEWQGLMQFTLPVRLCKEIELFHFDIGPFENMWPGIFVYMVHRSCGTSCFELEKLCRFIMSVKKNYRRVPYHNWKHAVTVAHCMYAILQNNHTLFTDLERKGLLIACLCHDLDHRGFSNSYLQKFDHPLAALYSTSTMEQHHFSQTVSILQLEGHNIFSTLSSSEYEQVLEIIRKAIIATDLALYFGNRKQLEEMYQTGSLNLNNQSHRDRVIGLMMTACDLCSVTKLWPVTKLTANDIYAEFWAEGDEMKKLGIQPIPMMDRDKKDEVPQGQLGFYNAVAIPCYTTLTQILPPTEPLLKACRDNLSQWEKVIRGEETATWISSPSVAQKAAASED
UniProt Q01062, whole entry: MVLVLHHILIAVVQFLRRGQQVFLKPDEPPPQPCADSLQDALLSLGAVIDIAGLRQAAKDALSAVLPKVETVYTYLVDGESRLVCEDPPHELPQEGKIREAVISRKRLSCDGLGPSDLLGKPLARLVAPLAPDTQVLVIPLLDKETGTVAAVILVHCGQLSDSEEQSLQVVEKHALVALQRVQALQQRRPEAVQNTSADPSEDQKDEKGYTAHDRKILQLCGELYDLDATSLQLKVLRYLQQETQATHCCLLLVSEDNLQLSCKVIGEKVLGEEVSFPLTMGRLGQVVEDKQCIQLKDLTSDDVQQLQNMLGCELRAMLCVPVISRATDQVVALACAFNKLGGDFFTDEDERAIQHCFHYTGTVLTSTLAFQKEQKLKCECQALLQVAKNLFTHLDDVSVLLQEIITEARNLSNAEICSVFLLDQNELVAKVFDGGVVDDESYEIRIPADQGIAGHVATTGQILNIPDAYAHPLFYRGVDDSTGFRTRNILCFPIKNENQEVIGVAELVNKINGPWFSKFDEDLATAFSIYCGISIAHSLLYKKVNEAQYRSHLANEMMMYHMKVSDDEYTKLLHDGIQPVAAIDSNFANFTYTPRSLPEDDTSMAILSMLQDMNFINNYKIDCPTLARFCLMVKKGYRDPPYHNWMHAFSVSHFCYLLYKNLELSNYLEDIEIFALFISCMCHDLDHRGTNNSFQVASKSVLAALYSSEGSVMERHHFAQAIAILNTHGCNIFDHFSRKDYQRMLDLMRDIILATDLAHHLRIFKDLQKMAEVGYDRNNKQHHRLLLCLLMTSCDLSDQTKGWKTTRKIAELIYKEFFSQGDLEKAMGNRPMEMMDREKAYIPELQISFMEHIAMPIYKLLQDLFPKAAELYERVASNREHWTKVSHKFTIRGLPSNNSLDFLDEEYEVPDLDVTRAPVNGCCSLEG
UniProt Q9QYJ6, whole entry: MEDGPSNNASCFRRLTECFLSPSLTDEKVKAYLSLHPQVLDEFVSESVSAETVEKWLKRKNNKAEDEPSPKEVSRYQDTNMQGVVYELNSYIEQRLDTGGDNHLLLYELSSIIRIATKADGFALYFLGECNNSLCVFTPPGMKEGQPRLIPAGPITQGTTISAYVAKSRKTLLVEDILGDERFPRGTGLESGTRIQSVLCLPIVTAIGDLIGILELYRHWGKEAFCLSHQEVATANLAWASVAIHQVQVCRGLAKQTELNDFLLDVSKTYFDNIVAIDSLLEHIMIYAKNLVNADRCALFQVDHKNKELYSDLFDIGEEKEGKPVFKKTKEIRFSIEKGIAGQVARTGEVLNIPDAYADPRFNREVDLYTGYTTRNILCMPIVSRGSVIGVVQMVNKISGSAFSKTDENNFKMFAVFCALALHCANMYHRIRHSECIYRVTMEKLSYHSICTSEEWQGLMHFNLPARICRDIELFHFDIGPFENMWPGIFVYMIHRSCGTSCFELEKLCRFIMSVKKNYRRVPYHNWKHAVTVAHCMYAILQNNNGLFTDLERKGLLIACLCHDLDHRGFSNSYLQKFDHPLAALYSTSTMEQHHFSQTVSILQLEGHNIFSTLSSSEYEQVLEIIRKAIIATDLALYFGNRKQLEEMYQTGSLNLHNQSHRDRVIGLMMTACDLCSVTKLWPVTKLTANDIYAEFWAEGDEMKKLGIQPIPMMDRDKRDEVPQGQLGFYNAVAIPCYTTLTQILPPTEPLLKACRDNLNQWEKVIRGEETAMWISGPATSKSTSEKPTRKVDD

Experiments:
[1] = target: Human recombinant PDE2A (hPDE2A) (Homo sapiens, UniProt O00408); assay: In vitro assay PDE2A (SPA, 3H-cGMP hydrolysis)
[2] = target: Human recombinant PDE3A (hPDE3A) (Homo sapiens, UniProt Q14432); assay: In vitro assay PDE3A (SPA, 3H-cAMP hydrolysis)
[3] = target: Human recombinant PDE10A (hPDE10A) (Homo sapiens, UniProt Q9Y233); assay: In vitro assay PDE10A, human clone (SPA, 3H-cAMP hydrolysis); format: biochemical; settings: for hPDE10A2 Emax / hPDE10A2 pIC50: human clone (h), default; for hPDE10A2 or rPDE10A2 Emax / hPDE10A2 or rPDE10A2 pIC50: human clone by default (no (r) mark)
PDE2A = PDE2A (Rattus norvegicus, UniProt Q01062); assay: PDE2 occupancy by test compounds, ex-vivo autoradiography with [3H]B-17a; settings: percentage receptor occupancy, striatum
[4] = target: Rat recombinant PDE10A (rPDE10A2) (Rattus norvegicus, UniProt Q9QYJ6); assay: In vitro assay PDE10A, rat clone (SPA, 3H-cAMP hydrolysis)
[5] = human recombinant PDE2A, 10 μM cGMP substrate

| PDE2 Occupancy at 10 mg/kg (PDE2A; route SC (subcutaneous)) [%] | Compound | hPDE2A Emax [1] [%] | hPDE2A pIC50 [1] | hPDE2A Emax ([1]; human recombinant PDE2A) [%] | hPDE2A pIC50 [1, 5] | hPDE3B Emax [2] [%] | hPDE3B Emax ([2]; head prints hPDE3B) [%] | hPDE10A2 Emax [3] | hPDE10A2 pIC50 [3] | rPDE10A2 Emax ([4]; rat clone (r)) | rPDE10A2 pIC50 ([4]; rat clone (r)) | rPDE10A2 Emax ([4]; rat clone, indicated as (r)) | rPDE10A2 pIC50 ([4]; rat clone, indicated as (r)) | hPDE10A2 or rPDE10A2 Emax [3] [%] | hPDE10A2 or rPDE10A2 pIC50 [3] | PDE2 Occupancy at 10 mg/kg (PDE2A; route PO (oral)) [%] |
| --- | --- | --- | --- | --- | --- | --- | --- | --- | --- | --- | --- | --- | --- | --- | --- | --- |
| 27 | Cc1cc([C@H]2CC[C@H]3CC[C@@H]2N3C(=O)c2ccc3ncsc3c2)n2ncnc2n1 | 100 | 9.29 | 100 | 9.29 | 55 | 55 | 98% | 7.32 | – | – | – | – | – | – | – |
| – | CC(=O)N1CCc2cc(C(=O)N3CCCC(C)(c4cc(C(F)F)nc5ncnn45)C3)ccc21 (centres unmarked) | 88 | 6.79 | 88 | 6.79 | 48 | 48 | – | – | 13 (r) | <5 (r) | 13 (r) | <5 (r) | – | – | – |
| – | C[C@H]1CCN(C(=O)c2ccc3c(ccn3CCF)c2)C[C@@H]1c1cc(C(F)F)nc2ncnn12 | 82 | 6.58 | 82 | 6.58 | 45 | 45 | 63% | 5.13 | – | – | – | – | 63 | 5.13 | – |
| – | COc1c(C(=O)N2CC[C@@H](C)[C@H](c3cc(C(F)F)nc4ncnn34)C2)cc(C)nc1C | 98 | 8.62 | – | – | 79 | – | – | – | – | – | – | – | 93 | 6.26 | 23 |
| – | CC(=O)N1CCc2cc(C(=O)N3CCCC(C)(c4ccnc5ncnn45)C3)ccc21 (centres unmarked) | 92 | 7.27 | 92 | 7.27 | 62 | 62 | 62 (h) | 5.23 (h) | 21 (r) | 5.32 (r) | 21 (r) | 5.32 (r) | – | – | – |
